Assay results taken from ChEMBL document CHEMBL4392848, “Proline-based hydroxamates targeting the zinc-dependent deacetylase LpxC: Synthesis, antibacterial properties, and docking studies” (Bioorg Med Chem, 2019).

Amino acid sequences for entries named in this document (tags omitted). A change or cut given only in a name is not applied to a line headed by its entry.
UniProt P22894: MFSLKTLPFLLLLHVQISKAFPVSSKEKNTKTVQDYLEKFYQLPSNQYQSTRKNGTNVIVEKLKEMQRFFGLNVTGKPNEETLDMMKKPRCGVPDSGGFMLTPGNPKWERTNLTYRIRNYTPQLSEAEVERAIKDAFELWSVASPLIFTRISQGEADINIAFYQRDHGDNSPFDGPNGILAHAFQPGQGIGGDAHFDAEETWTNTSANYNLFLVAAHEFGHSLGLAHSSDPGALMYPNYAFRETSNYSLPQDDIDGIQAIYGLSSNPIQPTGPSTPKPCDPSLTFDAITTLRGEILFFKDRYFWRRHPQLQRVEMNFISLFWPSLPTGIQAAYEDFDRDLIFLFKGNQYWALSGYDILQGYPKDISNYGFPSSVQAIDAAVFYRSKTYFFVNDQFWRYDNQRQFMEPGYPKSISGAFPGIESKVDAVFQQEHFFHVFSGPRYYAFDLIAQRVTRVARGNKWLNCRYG

Target: Neutrophil collagenase (Homo sapiens, UniProt P22894)
Experiment: Inhibition of human MMP8 using (7-methoxycoumarin-4-yl)acetyl-Pro-Leu-Gly-Leu-(3-(2,4-dinitrophenyl)-L-2,3-diamino-propionyl)Ala-Arg-NH2 as substrate preincubated for 30 mins followed by substrate addition and measured by fluorescence assay

COc1ccc(S(=O)(=O)N(Cc2cccnc2)[C@@H](C(=O)NO)C(C)C)cc1
IC50: 11 nM
